Data on 7 compounds can be found in ChEMBL document CHEMBL4480360, “Design and characterization of a heterocyclic electrophilic fragment library for the discovery of cysteine-targeted covalent inhibitors” (Medchemcomm, 2019).

This data set is described as follows: Glutathione reactivity assessed as thiol reactivity rate constant at 250 uM up to 72 hrs by HPLC-MS or NMR analysis. Also on record: unit not given beside the values. The format is physicochemical. Summed up: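 Fragment 250 µM mixed with 5 mM glutathione in PBS pH 7.4 containing 5% acetonitrile, with 100 µM indoprofen as internal standard. For fragments not detectable at 250 µM, levels were reversed (5 mM fragment, 250 µM GSH). HPLC-MS at 0–72 h. Internal-standard-corrected AUCs were fitted by OLS linear regression. k_GSH = k_eff − k_deg, and t1/2 = ln2/k_GSH.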
For `N#Cc1ccncn1`, the K stood at 0.0147.

On to `N#Cc1ncco1`, for which the K is reported as 1.4615.

For `N#Cc1nccs1`, the K is 0.0868.

On to `Ic1ccncc1`, for which the K is on record as 0.01.

`C#Cc1ncccn1`: the K was found to be 0.0148.

For `N#Cc1cocn1`, the K worked out at 0.693.

As to `N#Cc1ncc[nH]1`, the K is on record as 0.0132.
